Measurements: US20030109523A1, “Bicyclic antagonists selective for the alphavbeta3 integrin” (Wyeth, priority 1999, published 2003)

Chains of the proteins cited; added tags and fusions are not shown. Residues count along the entry.
UniProt P05106, 27-788: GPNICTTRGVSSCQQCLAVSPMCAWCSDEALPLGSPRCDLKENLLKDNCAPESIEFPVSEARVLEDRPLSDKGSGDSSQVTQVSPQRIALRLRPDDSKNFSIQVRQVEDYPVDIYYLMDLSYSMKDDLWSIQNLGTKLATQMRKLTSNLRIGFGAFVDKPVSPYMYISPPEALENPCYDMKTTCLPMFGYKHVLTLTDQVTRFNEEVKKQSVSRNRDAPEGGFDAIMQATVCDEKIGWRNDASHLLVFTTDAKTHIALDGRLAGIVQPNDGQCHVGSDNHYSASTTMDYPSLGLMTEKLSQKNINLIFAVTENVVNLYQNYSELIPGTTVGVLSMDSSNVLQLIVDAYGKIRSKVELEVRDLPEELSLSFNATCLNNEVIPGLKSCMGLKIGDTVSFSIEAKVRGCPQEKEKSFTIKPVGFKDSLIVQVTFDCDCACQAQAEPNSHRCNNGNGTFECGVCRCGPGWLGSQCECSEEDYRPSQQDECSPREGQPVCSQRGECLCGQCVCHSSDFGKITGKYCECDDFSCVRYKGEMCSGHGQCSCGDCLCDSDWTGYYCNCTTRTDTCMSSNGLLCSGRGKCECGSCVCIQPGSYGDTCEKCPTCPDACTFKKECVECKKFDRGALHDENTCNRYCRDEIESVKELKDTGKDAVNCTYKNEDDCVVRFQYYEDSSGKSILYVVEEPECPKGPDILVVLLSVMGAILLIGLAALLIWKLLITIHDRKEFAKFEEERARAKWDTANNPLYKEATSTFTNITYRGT
UniProt P08514, 32-887 limits assumed: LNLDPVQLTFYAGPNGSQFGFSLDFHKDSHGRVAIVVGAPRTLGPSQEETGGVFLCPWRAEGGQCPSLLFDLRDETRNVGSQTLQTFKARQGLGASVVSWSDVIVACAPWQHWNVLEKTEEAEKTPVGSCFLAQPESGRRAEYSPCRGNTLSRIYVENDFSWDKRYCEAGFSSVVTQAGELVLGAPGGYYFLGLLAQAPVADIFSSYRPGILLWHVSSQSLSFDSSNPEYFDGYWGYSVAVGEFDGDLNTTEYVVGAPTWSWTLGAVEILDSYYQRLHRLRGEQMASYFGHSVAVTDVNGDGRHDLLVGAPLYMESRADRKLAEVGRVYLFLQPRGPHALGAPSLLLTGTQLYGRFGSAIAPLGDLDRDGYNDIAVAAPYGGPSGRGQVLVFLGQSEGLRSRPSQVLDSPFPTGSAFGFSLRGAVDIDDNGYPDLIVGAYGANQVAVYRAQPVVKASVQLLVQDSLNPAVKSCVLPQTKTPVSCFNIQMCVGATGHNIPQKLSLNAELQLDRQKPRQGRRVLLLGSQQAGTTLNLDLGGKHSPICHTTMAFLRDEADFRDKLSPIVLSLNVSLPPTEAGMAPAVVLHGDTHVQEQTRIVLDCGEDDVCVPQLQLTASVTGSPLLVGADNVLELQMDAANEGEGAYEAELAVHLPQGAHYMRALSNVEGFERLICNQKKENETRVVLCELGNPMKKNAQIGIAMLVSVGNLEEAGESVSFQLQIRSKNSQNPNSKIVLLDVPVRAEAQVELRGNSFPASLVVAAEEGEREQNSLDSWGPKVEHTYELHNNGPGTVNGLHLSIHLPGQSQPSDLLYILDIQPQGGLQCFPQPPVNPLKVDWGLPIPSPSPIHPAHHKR
UniProt P08514, 891-1039 partner limits assumed: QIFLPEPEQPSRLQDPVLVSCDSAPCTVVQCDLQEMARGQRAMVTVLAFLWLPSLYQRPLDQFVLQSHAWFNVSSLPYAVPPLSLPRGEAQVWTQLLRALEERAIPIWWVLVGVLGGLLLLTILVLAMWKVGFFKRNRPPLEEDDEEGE
UniProt P06756, 891-1048 partner limits assumed: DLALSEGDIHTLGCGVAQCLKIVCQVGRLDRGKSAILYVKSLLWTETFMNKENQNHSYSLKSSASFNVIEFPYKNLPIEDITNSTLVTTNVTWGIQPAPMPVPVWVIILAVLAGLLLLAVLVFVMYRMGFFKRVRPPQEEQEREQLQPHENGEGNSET
UniProt P06756, 31-889 limits assumed: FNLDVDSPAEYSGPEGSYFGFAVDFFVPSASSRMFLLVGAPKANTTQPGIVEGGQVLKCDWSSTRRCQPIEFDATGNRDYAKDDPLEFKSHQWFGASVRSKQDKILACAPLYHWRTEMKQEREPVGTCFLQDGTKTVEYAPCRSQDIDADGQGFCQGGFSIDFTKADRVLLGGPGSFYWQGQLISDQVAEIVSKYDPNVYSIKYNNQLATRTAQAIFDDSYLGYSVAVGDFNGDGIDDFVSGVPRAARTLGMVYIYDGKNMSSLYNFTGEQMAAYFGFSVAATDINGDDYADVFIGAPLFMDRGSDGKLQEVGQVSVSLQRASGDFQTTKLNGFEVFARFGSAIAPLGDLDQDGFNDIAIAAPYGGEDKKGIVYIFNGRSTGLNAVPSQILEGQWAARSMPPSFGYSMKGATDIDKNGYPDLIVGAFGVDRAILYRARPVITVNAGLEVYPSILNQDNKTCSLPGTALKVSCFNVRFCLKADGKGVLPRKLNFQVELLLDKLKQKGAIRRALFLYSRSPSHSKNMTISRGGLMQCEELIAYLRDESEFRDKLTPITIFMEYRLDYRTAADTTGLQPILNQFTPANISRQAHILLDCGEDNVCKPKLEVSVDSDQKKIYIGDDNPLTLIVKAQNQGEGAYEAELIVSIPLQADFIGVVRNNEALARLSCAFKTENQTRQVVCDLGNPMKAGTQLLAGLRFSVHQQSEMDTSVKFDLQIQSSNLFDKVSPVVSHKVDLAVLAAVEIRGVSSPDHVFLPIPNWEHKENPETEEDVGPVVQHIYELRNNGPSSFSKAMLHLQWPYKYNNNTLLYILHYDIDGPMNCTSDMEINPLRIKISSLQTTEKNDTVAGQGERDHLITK

Legend:
αIIbβ3 integrin = target: T1, αIIbβ3 integrin (Homo sapiens, UniProt P05106+P08514); assay: ADP-Induced Platelet Aggregation; assay type: cell-based; conditions: reference compounds, Table VI; ADP 20 uM, human platelets; read-out: IC50 (95% Confidence Interval)
T1 construct: Human Platelets: Platelet-enriched plasma was obtained commercially from a donor pool; from tissue; host or cells: human platelet-rich plasma from a commercial donor pool
Procedure: Measurement of the Effect of Compounds on ADP-Induced Platelet Aggregation
Measuring the effect of compounds on ADP-induced platelet aggregation mediated by a fibrinogen-αIIbβ3 integrin interaction.
Human Platelets: Platelet-enriched plasma was obtained commercially from a donor pool. The plasma was tested prior to shipment and found to be negative for HIV, HCV and Hepatitis B. Platelet-rich plasma (PRP) was obtained by diluting plasma to an approximate final concentration of 3×10(6) platelets per mL in platelet poor plasma (PPP). PPP was the supernatant of a lowspeed centrifugation of plasma.
Adenosine diphosphate (ADP): ADP was obtained commercially and diluted to 1 mM (stock solution) in distilled, deionized water (ddH2O).
Incubation: PRP and PPP were prewarmed in a water bath at 37° C. […] PRP plus sample compound in a final volume of 500 uL was added to a pre-warmed cuvette in a ChronoLog aggregometer. […]
Aggregation: To begin the test, ADP was added yielding a final concentration of 20 uM to both samples (plus and minus sample compound). Light transmittance was monitored continuously and compared to the reference cuvette. After five minutes, the test was terminated and the slope and maximal amplitude of the resulting aggregation plot was calculated by the aggregometer. […]

[1] = target: T2, Vitronectin Receptor (αVβ3) (Homo sapiens, UniProt P05106+P06756); assay: Vitronectin Receptor (αVβ3) Binding Test Procedure; conditions: reference RGD peptides; 125I-Echistatin 50 pM
T2 construct: expressed in transfected cells; host or cells: 512P5 cells (plasma membrane preparation)

αVβ3 integrin = target: T3, αVβ3 integrin (Homo sapiens, UniProt P05106+P06756); assay: Osteopontin-αVβ3 Cell Attachment Test Procedure; assay type: cell-based; conditions: reference peptides; SK-MEL-24 human malignant melanoma cell line; read-out: IC50 (95% Confidence Interval)
T3 construct: αVβ3-expressing cell lines are maintained by standard tissue culture techniques; endogenous in cells; host or cells: αVβ3-expressing cell lines
Procedure: Osteopontin-αVβ3 Cell Attachment Test Procedure
Measuring the effect of compounds on the RGD-dependent attachment of cells to osteopontin mediated by the αVβ3 integrin.
Following incubation the wells were aspirated and washed once with D-PBS; plates can either be used immediately or stored for up to 1 week at 4° C. Prior to assay, the wells were blocked with 1% bovine serum albumin (BSA) in cell suspension media for 1 hour at 37° C. Following the blocking period, wells were aspirated and washed once with D-PBS.
αVβ3-expressing cell lines are maintained by standard tissue culture techniques. […] The cells were pelleted by low-speed centrifugation and washed three times with 0.5 mg/mL trypsin inhibitor in D-PBS (Sigma). The final cell pellet was resuspended in cell suspension media at a concentration of 10^6 cells/mL.
Incubation: 100 μL of diluted test compound was added to osteopontin-coated wells (in triplicate) followed by 100 μL of cell suspension; background cell attachment was determined in uncoated wells. […]
Cell Number Detection: The number of cells attached was determined by an MTT dye conversion assay (Promega) according to the manufacturer's instructions. […]
The individual well optical density was expressed as a percentage of the maximal attachment (% Max) wells minus background attachment, and reported as the mean ±standard deviation.

IC50 [1]	Compound	IC50 (αIIbβ3 integrin)	IC50 (αVβ3 integrin)
	NCC(=O)N[C@@H](CCCN=C(N)N)C(=O)NCC(=O)N[C@@H](CC(=O)O)C(=O)N[C@@H](Cc1ccccc1)C(=O)O [GRGDF, reference compound]	53.2 µM	
0.751 µM	N=C(N)NCCC[C@H](NC(=O)CN)C(=O)NCC(=O)N[C@@H](CC(=O)O)C(=O)N[C@@H](CO)C(=O)O [GRGDS, reference compound]		
	CNCC(=O)N[C@@H](CCCNC(=N)N)C(=O)NCC(=O)N[C@@H](CC(=O)O)C(=O)N[C@@H](CO)C(=O)N1CCC[C@H]1C(=O)O [n-Me-GRGDSP, reference compound]	208 µM	4 µM
